Values of other authors, collected in patent US7945392B2, “Methods and systems for drug screening and computational modeling based on biologically realistic neurons” (McLean Hospital Corporation, priority 2005, dated 2011).

Settings: reasonable value, from Tran et al. 2000; cited from earlier work

SMILES: Cc1cc2c(s1)Nc1ccccc1N=C2N1CCN(C)CC1 [olanzapine]
- free concentration (corrected for binding to plasma proteins): 27 nM
